# scFv variants of Ab-95 (light chain) against a SARS-CoV-2 spike peptide

The measurements come from Engelhart et al. 2022 (doi:10.1038/s41597-022-01779-4) through the FLAb antibody collection.

Binding partner: SARS-CoV-2 spike HR2 peptide, sequence PDVDLGDISGINAS.

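In library AAYL52, one, two or three CDR residues were substituted; doubles and triples were drawn at random. The scFvs were displayed on barcoded MATa yeast, the peptide on MATalpha yeast. The frequency of each diploid, read from paired DNA barcodes, reflects how well the two displayed proteins bind. A regression on co-assayed BCL2-family reference pairs converts the normalised counts of each replicate to an apparent Kd. There are three technical replicates.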

The variants keep the heavy chain, the linker and the frameworks of Ab-95 (scFv order VH, a (GGGGS)3 linker, VL).
VH: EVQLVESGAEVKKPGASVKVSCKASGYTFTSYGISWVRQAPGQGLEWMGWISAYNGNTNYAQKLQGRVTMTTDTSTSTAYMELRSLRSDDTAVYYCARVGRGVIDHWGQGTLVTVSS
VL: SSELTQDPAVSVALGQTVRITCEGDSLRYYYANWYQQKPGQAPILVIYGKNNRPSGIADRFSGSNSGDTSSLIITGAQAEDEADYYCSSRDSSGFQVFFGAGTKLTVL

Changes read parent residue, position, new residue, counted from the first residue of the VL shown. Every variant below is changed at R90 of the VL (sequential numbering). Kd is apparent (estimated from mating counts) and averaged on the log scale over replicates with a signal. Smaller is tighter. A pair that was not seen in any replicate is written "nd"; this usually means weak binding, but a binder can also be missed. Order: sorted from the lowest average up, undetected variants last.

Variant D25H/Y30H/R90K gave 40 nM (3 of 3 replicates; controls 2 of 9).
Variant N52D/R90T gave 91 nM (3 of 3 replicates; controls 0 of 9).
Variant Y30Q/A32S/R90Y gave 96 nM (3 of 3 replicates; controls 0 of 9).
Variant S88L/R90N/F98C gave 150 nM (3 of 3 replicates; controls 3 of 9).
Variant R90N gave 250 nM (3 of 3 replicates; controls 1 of 9).
Variant S88N/R90M gave 390 nM (3 of 3 replicates; controls 2 of 9).
Variant Y30I/Y31A/R90A gave 510 nM (3 of 3 replicates; controls 1 of 9).
Variant K50A/R90Y/F98A gave 910 nM (3 of 3 replicates; controls 3 of 9).
Variant R90T/S92A/F98A gave 950 nM (3 of 3 replicates; controls 3 of 9).
Variant D25H/A32P/R90Q gave 1.4 µM (3 of 3 replicates; controls 2 of 9).
Variant R28N/P54E/R90H gave 1.4 µM (3 of 3 replicates; controls 1 of 9).
Variant S55M/S89Q/R90V gave 1.5 µM (2 of 3 replicates; controls 4 of 9).
Variant E23N/P54N/R90Y gave 1.6 µM (2 of 3 replicates; controls 2 of 9).
Variant S88C/R90K gave 1.9 µM (3 of 3 replicates; controls 4 of 9).
Variant G24S/R90T/F98E gave 2.2 µM (2 of 3 replicates; controls 1 of 9).
Variant R90W/S93V/F95V gave 2.7 µM (1 of 3 replicates; controls 4 of 9).
Variant R28W/R90P/Q96T gave 3.3 µM (1 of 3 replicates; controls 3 of 9).
Variant N33C/R53A/R90F gave 3.8 µM (1 of 3 replicates; controls 3 of 9).
Variant Y31R/R53M/R90G gave 4.3 µM (3 of 3 replicates; controls 1 of 9).
Variant L27Q/R90C/S93F gave 4.8 µM (2 of 3 replicates; controls 4 of 9).
Variant R90V/F95C/Q96C gave 5.2 µM (1 of 3 replicates; controls 2 of 9).
Variant E23H/S88L/R90G gave 6.8 µM (2 of 3 replicates; controls 3 of 9).
Variant G24Y/S88F/R90W gave 8.1 µM (1 of 3 replicates; controls 2 of 9).
Variant Y31N/R90N/Q96E gave 8.4 µM (2 of 3 replicates; controls 1 of 9).
Variant Y29C/R90K gave 9.6 µM (2 of 3 replicates; controls 2 of 9).
Variant Y30F/R53F/R90K gave 11 µM (1 of 3 replicates; controls 1 of 9).
Variant G49Y/S88W/R90Q gave 19 µM (3 of 3 replicates; controls 4 of 9).
Variant S55V/R90P gave 20 µM (2 of 3 replicates; controls 3 of 9).
Variant A32E/R90E/Q96K gave 59 µM (2 of 3 replicates; controls 2 of 9).
Variant Y31H/K50S/R90L gave 59 µM (2 of 3 replicates; controls 5 of 9).
Variant R90M/S92R gave 65 µM (2 of 3 replicates; controls 5 of 9).
Variant Y30Q/R90V/S92E gave nd (0 of 3 replicates; controls 3 of 9).
Variant D25E/N52G/R90Y gave nd (0 of 3 replicates; controls 3 of 9).
Variant Y29C/A32Y/R90N gave nd (0 of 3 replicates; controls 1 of 9).
Variant D25N/S55V/R90L gave nd (0 of 3 replicates; controls 0 of 9).
Variant G24E/R90P gave nd (0 of 3 replicates; controls 1 of 9).
Variant Y30T/N52Y/R90A gave nd (0 of 3 replicates; controls 1 of 9).
Variant N52R/S55L/R90Q gave nd (0 of 3 replicates; controls 1 of 9).
Variant Y31W/R90G/G94T gave nd (0 of 3 replicates; controls 0 of 9).
Variant A32P/K50R/R90N gave nd (0 of 3 replicates; controls 2 of 9).

Three control strains display no target. For library AAYL52, 28% of the pairings with them gave a signal, with a median of 8.2 µM and one signal in twenty below 800 nM, so weak values seen in few replicates may be background. For each scFv, signals with the empty controls are counted beside the result.